Test results as given in ChEMBL document CHEMBL5727992, “3-((hetero-)aryl)-8-amino-2-oxo-1,3-diaza-spiro-[4.5]-decane derivatives” (2020).

Assay: Receptor Binding Assay: NOP:The hNOP receptor binding assay was performed as homogeneous SPA-assay (scintillation proximity assay) using the assay buffer 50 mM TRIS-HCl. 10 mM MgCl2. 1 mM EDTA (pH 7.4). The final assay volume (250 μl/well) included 0.5 nM of [leucyl-3H]nociceptin as ligand (PerkinElmer Life Sciences. Inc. Boston. Mass. USA). and either test compound in dilution series or 1 μM unla

CN[C@]1(c2ccccc2)CC[C@]2(CC1)CN(CC(C)(C)C(N)=O)C(=O)N2
Ki: 1300 nM
